Assay results from patent US11591365B2, “BCL9 peptides and variants thereof” (WntRx Pharmaceuticals Inc., priority 2017, dated 2023).

Test system: Colo320DM
Test: Colo320DM cell viability
Type: cell-based, human
From the text: In some embodiments, a polypeptide described herein inhibits binding of BLC9 to β-catenin when assessed in a cell-viability assay. In some embodiments, the cell-viability assay is a CellTiterGlo luminescent assay, wherein the viability of cells is quantitatively measured. Various cell lines, transformed cell lines or primary cells derived from a healthy subject or subject suffering from a disease can be used in this assay.

## CC[C@H](C)[C@@H]1NC(=O)[C@@](C)(NC(=O)[C@H](CCCNC(=N)N)NC(=O)[C@H](CC(C)C)NC(=O)[C@@H](NC(=O)[C@H](CCC(N)=O)NC(=O)[C@H](CC(C)C)NC(=O)[C@H](CO)NC(=O)[C@H](CCCNC(=N)N)NC(=O)[C@H](CCC(N)=O)NC(=O)[C@H](CCCNC(=N)N)NC(=O)[C@H](Cc2c[nH]cn2)NC(C)=O)[C@@H](C)O)CCCC=CCCC[C@@](C)(C(=O)N[C@@H](CC2CCC2)C(=O)N[C@@H](Cc2ccc3ccccc3c2)C(=O)NCCC(=O)NCCC(N)=O)NC(=O)[C@H](CCCNC(=N)N)NC(=O)[C@H](CCC(N)=O)NC1=O [SEQ ID NO: 148, HRQRSLQTLRXIQRX(CBA)(2-Nal)(β-Ala)(β-Ala)]
  IC50: 2600 nM
